Source: US12378277B2, “SGLTS/DPP4 inhibitor and application thereof” (DONGBAO PURPLE STAR (HANGZHOU) BIOPHARMACEUTICAL CO., LTD., priority 2019, dated 2025)
Marks after values point to notes of the source that are not given here.

Columns and labels:
[1] = DMPK study in vivo (single administration, plasma concentration by LC-MS/MS); conditions: male C57 mice; for F % (oral bioavailability): intravenous 1 mg/kg, oral 10 mg/kg; for Cl (clearance rate) / Vdss (volume of distribution): intravenous administration of 1 mg/kg; for Oral DNAUC (AUCPO/Dose) / Cmax: oral administration of 10 mg/kg; for T1/2 (half-life): single administration; for Cmax: read-out: Cmax (maximum concentration)
Method: Experimental purpose: Male C57 mice were used as test animals to determine the blood concentration of the compound and evaluate the pharmacokinetic behavior after a single administration.
Experimental operation: 6 healthy adult male C57 mice were selected, 3 for the intravenous injection group and 3 for the oral group. The test compound was mixed with an appropriate amount of solvent^# of the intravenous injection group, and the mixture was vortexed and sonicated to prepare 1 mg/mL of a clear solution, which was filtered with a microporous membrane for later use. For oral group, the test compound was mixed with the solvent, and the mixture was vortexed and sonicated to prepare 1 mg/mL of a clear solution. After intravenous administration of 1 mg/kg or oral administration of 10 mg/kg to mice, whole blood was collected for a certain period of time, and plasma was prepared. The drug concentration was analyzed by LC-MS/MS method, and the pharmacokeneties parameters were calculated by Phoenix WinNonlin software (Pharsight, USA).
The solvent used in WXD004 was 20% polyethylene glycol 400/10% polyethylene glycol-15 hydroxystearate/70% H2O.

SD rat = experiment: Rat oral glucose tolerance test (OGTT) in vivo; conditions: 10 mg/kg single gavage
Method: 1. Animal: [table] 2. Experiment Grouping: [table] Experiment Process: 1. Animal Adaptation and Preparation: The experimental animals needed to be acclimatized in the animal room for 1 week after arriving at the facility. 2. Fasting and Administration The animals were fasted for 18 h in the metabolic cage, and drugs or solvents (2 mL/kg) were given according to the above table, and then 50% glucose solution (2 g/kg, 4 mL/kg) was administrated immediately. 3. Urine and Blood Sugar Test Two hours after the animals were given sugar, they resumed eating. The time points of 0 min, 15 min, 30 min, 45 min, 60 min and 120 min were collected for blood glucose determination; urine during 0-24 h was used for urine sugar (mg/200 g) and urine volume test respectively. 4. Data Analysis: All values will be expressed as average values. Statistical analysis was evaluated using Graphpad Prism 6 one-way analysis of variance Tukey's multiple comparison test. P value of less than 0.05 was considered of statistically significant.

Compound	F % (oral bioavailability) [1] [%]	Cl (clearance rate) [1] [mL/min/kg]	Vdss (volume of distribution) [1] [L/kg]	Oral DNAUC (AUCPO/Dose) [1] [nM · h/mpk]	T1/2 (half-life) [1] [h]	Cmax [1] [nM]	OGTT glucose level AUC0-2 hr (SD rat; then 50% glucose solution 2 g/kg, solvent control group 1079)	Urine sugar level (SD rat; urine during 0-24 h, solvent control group 0.4) [mg/200 g BW]	Urine volume (SD rat; urine during 0-24 h, solvent control group 16.8) [mL/200 g BW]
CS[C@H]1O[C@@H](c2ccc(Cl)c(Cc3ccc(O[C@@H]4CCN([C@@H]5CO[C@H](c6cc(F)ccc6F)[C@@H](N)C5)C4)cc3)c2)[C@H](O)[C@@H](O)[C@@H]1O	10.2	20.7	13.2	113	13.4	171			
CCc1ccc([C@@H]2O[C@H](SC)[C@@H](O)[C@H](O)[C@H]2O)cc1Cc1ccc(O[C@@H]2CCN([C@@H]3CO[C@H](c4cc(F)ccc4F)[C@@H](N)C3)C2)cc1 (single isomer, unassigned) [WXD001]	18.2	42.0	17.8	109	8.99	225	670**** mol/L × min	16.2	11.2
